Legend:
[1] = target: human muscarinic M4 receptor (Homo sapiens, UniProt P08173); test: Alphascreen Surefire phospho-ERK1/2 functional assay, M4; format: cell-based; details: CHO cells stably expressing human M4; for pEC50 M4: agonist 5 min, 37° C.; for % Emax cf. ACh (M4): relative to ACh
[2] = target: human muscarinic M2 receptor (Homo sapiens, UniProt P08172); test: Alphascreen Surefire phospho-ERK1/2 functional assay, M2; format: cell-based; details: CHO cells stably expressing human M2; relative to ACh
[3] = target: human muscarinic M3 receptor (Homo sapiens, UniProt P20309); test: Alphascreen Surefire phospho-ERK1/2 functional assay, M3; format: cell-based; details: CHO cells stably expressing human M3; for pEC50 M3: agonist 5 min, 37° C.; for % Emax cf. ACh (M3): relative to ACh
[4] = target: human muscarinic M1 receptor (Homo sapiens, UniProt P11229); test: Alphascreen Surefire phospho-ERK1/2 functional assay, M1; details: CHO cells stably expressing human M1; for pEC50 M1: agonist 5 min, 37° C.; for % Emax cf. ACh (M1): relative to ACh

Chains of the proteins cited; added tags and fusions are not shown.
UniProt P08173, whole entry: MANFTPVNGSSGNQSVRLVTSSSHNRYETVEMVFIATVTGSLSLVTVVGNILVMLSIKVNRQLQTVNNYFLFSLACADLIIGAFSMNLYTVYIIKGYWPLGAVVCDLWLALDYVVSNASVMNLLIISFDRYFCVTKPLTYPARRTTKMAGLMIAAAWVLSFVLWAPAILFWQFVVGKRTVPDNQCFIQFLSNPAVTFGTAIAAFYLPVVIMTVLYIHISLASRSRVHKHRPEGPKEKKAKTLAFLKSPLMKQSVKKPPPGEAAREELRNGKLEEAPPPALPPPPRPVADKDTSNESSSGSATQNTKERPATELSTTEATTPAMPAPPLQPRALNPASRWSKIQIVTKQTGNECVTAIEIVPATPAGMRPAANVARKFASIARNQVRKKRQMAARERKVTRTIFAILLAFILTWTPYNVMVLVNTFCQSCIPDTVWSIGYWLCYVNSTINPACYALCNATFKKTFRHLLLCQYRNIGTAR
UniProt P08172, whole entry: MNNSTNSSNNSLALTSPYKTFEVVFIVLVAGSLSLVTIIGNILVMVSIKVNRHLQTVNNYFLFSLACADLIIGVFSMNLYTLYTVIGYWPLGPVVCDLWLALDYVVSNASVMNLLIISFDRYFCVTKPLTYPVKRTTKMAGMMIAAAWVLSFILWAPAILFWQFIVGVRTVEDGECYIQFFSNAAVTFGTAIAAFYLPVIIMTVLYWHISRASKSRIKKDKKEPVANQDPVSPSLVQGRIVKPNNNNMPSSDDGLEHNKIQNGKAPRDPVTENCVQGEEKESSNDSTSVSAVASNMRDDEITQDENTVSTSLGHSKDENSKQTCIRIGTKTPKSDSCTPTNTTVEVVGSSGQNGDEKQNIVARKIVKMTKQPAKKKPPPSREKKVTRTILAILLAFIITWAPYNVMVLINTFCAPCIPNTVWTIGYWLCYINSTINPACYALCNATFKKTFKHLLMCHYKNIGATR
UniProt P20309, whole entry: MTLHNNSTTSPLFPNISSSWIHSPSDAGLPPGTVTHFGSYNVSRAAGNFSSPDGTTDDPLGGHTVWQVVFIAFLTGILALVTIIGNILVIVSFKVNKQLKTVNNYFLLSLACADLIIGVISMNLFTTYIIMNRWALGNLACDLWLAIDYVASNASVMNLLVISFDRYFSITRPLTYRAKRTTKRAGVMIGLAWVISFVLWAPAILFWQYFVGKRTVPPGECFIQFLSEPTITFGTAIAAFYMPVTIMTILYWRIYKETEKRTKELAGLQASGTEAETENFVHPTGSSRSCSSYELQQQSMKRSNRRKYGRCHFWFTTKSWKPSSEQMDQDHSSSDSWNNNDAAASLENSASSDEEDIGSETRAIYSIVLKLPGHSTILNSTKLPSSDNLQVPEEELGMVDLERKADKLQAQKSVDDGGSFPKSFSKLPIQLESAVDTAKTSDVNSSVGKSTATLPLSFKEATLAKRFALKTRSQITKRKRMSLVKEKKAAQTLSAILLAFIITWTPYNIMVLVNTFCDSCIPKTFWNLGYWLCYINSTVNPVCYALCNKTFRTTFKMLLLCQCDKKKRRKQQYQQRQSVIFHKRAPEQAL
UniProt P11229, whole entry: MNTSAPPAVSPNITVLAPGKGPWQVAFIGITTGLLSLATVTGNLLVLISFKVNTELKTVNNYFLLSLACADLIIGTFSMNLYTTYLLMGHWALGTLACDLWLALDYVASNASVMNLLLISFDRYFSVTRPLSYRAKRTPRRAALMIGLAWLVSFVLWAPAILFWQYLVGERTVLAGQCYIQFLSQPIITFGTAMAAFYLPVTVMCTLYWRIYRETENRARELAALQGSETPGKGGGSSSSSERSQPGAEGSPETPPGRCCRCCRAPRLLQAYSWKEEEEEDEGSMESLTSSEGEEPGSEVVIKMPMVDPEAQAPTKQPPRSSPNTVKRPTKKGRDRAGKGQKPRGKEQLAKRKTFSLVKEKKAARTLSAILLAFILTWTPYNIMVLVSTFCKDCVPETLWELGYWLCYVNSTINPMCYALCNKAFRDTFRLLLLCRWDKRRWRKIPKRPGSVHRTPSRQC

Structure (SMILES) | pEC50 M4 [1] | % Emax cf. ACh (M4) [1] | % Emax cf. ACh (M2) [2] | pEC50 M3 [3] | % Emax cf. ACh (M3) [3] | pEC50 M1 [4] | % Emax cf. ACh (M1) [4]
CCOC(=O)N1CCC2(CC(N3C[C@@H]4[C@H](C3)[C@H]4C(=O)N(CC)C3CC3)C2)C1 (some centres unmarked) | 7.17 | 85% | 20% | 4.70 | 55% | 7.69 | 100%
CCOC(=O)N1CCC2(CC(N3C[C@@H]4[C@H](C3)[C@H]4C(=O)N3CCCCC3)C2)C1 (single isomer, unassigned) [2-13 Isomer 2] | 6.32 | 72% | 51% | 4.70 | 38% | 6.94 | 83%
CCOC(=O)N1CCC2(CC(N3C[C@@H]4[C@H](C3)[C@H]4C(=O)N(C)C(C)C)C2)C1 (single isomer, unassigned) [2-8 Isomer 2] | 7.00 | 92% | 15% | 4.70 | 17% | 7.52 | 110%
CCOC(=O)N1CCC2(CC(N3C[C@@H]4[C@H](C3)[C@H]4C(=O)N3CCCC[C@H]3C)C2)C1 (single isomer, unassigned) [2-14 Isomer 2] | 7.16 | 93% | 62% | 4.85 | 100% | 7.72 | 111%
CCOC(=O)N1CCC2(CC(N3C[C@@H]4[C@H](C3)[C@H]4C(=O)NCC3CCC3)C2)C1 (single isomer, unassigned) [2-3 Isomer 1] | 6.77 | 100% | 14% | 4.70 | 15% | 7.39 | 108%

Source: patent US10329278B2, “Pharmaceutical compounds” (Heptares Therapeutics Limited, priority 2017, dated 2019)
